Results as given in PMC5736936, “Xylopine Induces Oxidative Stress and Causes G2/M Phase Arrest, Triggering Caspase-Mediated Apoptosis by p53-Independent Pathway in HCT116 Cells” (Oxidative Medicine and Cellular Longevity, 2017).

System: SCC9 (human oral squamous cell carcinoma)
Test: Cytotoxic activity, alamarBlue assay, 72 h
Format: cell-based
Conditions: IC50(PBMC)/IC50(SCC-9)
Source text: MCF7 (human breast carcinoma), HCT116 (human colon carcinoma), HepG2 (human hepatocellular carcinoma), SCC-9 (human oral squamous cell carcinoma), HSC-3 (human oral squamous cell carcinoma), HL-60 (human promyelocytic leukemia), K-562 (human chronic myelogenous leukemia), B16-F10 (murine melanoma), MRC-5 (human lung fibroblast), WT SV40 MEF (wild-type immortalized mouse embryonic fibroblast), and BAD KO SV40 MEF (BAD gene knockout immortalized mouse embryonic fibroblast) cell lines were obtained from the American Type Culture Collection (ATCC, Manassas, VA, USA). Cells were cultured in complete medium with appropriate supplements as recommended by ATCC. All cell lines were tested for mycoplasma using the Mycoplasma Stain Kit (Sigma-Aldrich) to validate the use of cells free from contamination. Primary cell culture of peripheral blood mononuclear cells (PBMC) was obtained by standard Ficoll density protocol. The Research Ethics Committee of the Oswaldo Cruz Foundation (Salvador, BA, Brazil) approved the experimental protocol (number 031019/2013). […]
Cell viability was quantified using the alamarBlue assay according to Ahmed et al.. […] Absorbance at 570 nm and 600 nm was measured using the SpectraMax 190 Microplate Reader (Molecular Devices, Sunnyvale, CA, USA), and the drug effect was quantified as the percentage of control absorbance.

COc1cccc2c1C(=O)c1c(O)c3c(c(O)c1C2=O)C[C@@](O)(C(=O)CO)C[C@@H]3O[C@H]1C[C@H](N)[C@H](O)[C@H](C)O1 [DOX, doxorubicin]
Selectivity index: 10.4
